Counter-ions that a name gives are not always drawn.

One data set concerns miniature swine bladder. Particulars: in vivo.
Another data set deals with guinea pig bladder. Particulars: in vivo.
The conditions of data set [1]: human, in vivo; cited from earlier work.
The conditions of data set [2]: in vivo; cited from earlier work.
The conditions of data set [3]: in vivo; cited from earlier work. The source holds these as a separate data set.

Consider `CCN(CC)CC#CCOC(=O)C(O)(c1ccccc1)C1CCCCC1` (stereo not drawn) [Oxybutynin, (4-diethylamino)-2-butynyl-α-cyclohexyl-α-hydroxybenzeneacetate HCl], for which, in the data set on miniature swine bladder, the “Body Temp increase ° C.” value came out at 0 °C, the “Heart rate % increase” value is given as 0% and the “effect of intravesical administration on micturition” value is recorded as “increased duration of micturition”. In the data set on guinea pig bladder, the bladder volume result is “increase in volume”, the “fall in peak intravesical pressure” value is listed as “about 70%” and the peak intravesical pressure result is on record as “significant fall”. The “Severe mouth dryness, subjects” value in data set [1] is reported as 84%. For the same compound, the “prolongation of the drug's action” value in data set [2] is listed as “about 3 fold”. In data set [3], the “mean bladder capacity increase” value is given as 41%, the “mean intravesical pressure decrease” value was 47%, the “patients who achieved continence” value was “Five of 28” and the “patients with less wetting” value was 62%.

These data come from patent US6482837B1 (priority 1998, dated 2002).
